Measurements published in published antibiotic growth screens (doi:10.1038/s41589-023-01349-8).
Some of the results follow.

The molecules below were run on A. baumannii ATCC 17978 (assay: relative growth (fraction of control); higher = less inhibition). Conditions: 50 µM.
Work on CC(=O)c1c(O)c(C)c(O)c(Cc2c(O)c3c(c(C(=O)/C=C/c4ccccc4)c2O)OC(C)(C)C=C3)c1O yielded a relative growth of 0.992.
CCOc1cc(C=O)ccc1O gave a relative growth of 1.02.
Cl.Clc1ccc(C(OCCN2CCCCC2)c2ccccc2)cc1 (stereo not drawn) gave a relative growth of 0.82.
Molecule NCC1(c2c(F)cc(F)cc2F)CC1 has a relative growth of 1.
In the case of Cl[C@H]1[C@H](Cl)[C@@H](Cl)[C@@H](Cl)[C@H](Cl)[C@H]1Cl, the relative growth is reported as 1.04.
In the case of Oc1ccc(Cl)cc1Cc1cc(Cl)ccc1O, the relative growth is reported as 0.153.
Cl.NNCc1ccccc1 gave a relative growth of 0.947.
Work on CC(O)CN1CCN(CC(=O)[O-])CCN(CC(=O)[O-])CCN(CC(=O)[O-])CC1.[Gd+3] (stereo not drawn) yielded a relative growth of 1.11.
Molecule C[C@@H]1O[C@@H](O[C@H]2C[C@@H](O)[C@]3(CO)C4C(CC[C@]3(O)C2)[C@@]2(O)CC[C@H](C3=CC(=O)OC3)[C@@]2(C)C[C@H]4O)[C@H](O)[C@H](O)[C@H]1O.O.O.O.O.O.O.O.O (stereo partly drawn) has a relative growth of 0.899.
Molecule COc1ccccc1C1(N)CC1 has a relative growth of 1.03.
With CCC(N)C(O)c1ccc(O)c(O)c1.Cl (stereo not drawn) the relative growth was 0.998.
CCN(Cc1ccc(Cl)nc1)/C(=C/[N+](=O)[O-])NC showed a relative growth of 0.966.
Work on CCCC(C)(COC(N)=O)COC(=O)NC(C)C (stereo not drawn) yielded a relative growth of 1.05.
COC(C)(C)CCC[C@H](C)C/C=C/C(C)=C/C(=O)OC(C)C gave a relative growth of 1.07.
CI.O=C(COc1ccc(Cl)cc1Cl)OC[C@H]1CCCN2CCCC[C@@H]12 was tested, and the relative growth was 0.946.
CCC1(C)CC(=O)NC(=O)C1 was tested, and the relative growth was 0.988.
C/C=C(\C)C(=O)O[C@H]1C[C@@H](OC(C)=O)[C@@]2(C(=O)OC)CO[C@H]3[C@@H](O)[C@@](C)([C@]45O[C@@]4(C)[C@H]4C[C@@H]5O[C@H]5OC=C[C@@]54O)[C@H]4[C@]1(CO[C@]4(O)C(=O)OC)[C@@H]32 was tested, and the relative growth was 0.996.
Work on Nc1nc(Cl)ncc1[N+](=O)[O-] yielded a relative growth of 1.12.
In the case of N[C@@H](Cc1ccccc1)c1ccc2c(c1)OCCO2, the relative growth is reported as 1.04.
C#CC(C)(O)CC (stereo not drawn) showed a relative growth of 0.969.
Molecule COc1cc2c(cc1O)CC1c3c(cc(O)c(OC)c3-2)CCN1C (stereo not drawn) has a relative growth of 0.94.
COc1cc(OC)c(OC)cc1C=O showed a relative growth of 0.881.
With C[C@]12CCC3C(CC[C@H]4C[C@H](O)CC[C@]34C)C1CCC2=O (stereo partly drawn) the relative growth was 0.911.
Clc1ccc(C(c2ccc(Cl)cc2)C(Cl)(Cl)Cl)cc1 showed a relative growth of 1.34.
In the case of Cc1ccc(C=C2C(=O)NC(=O)NC2=O)cc1, the relative growth is reported as 0.982.
For CC(C)(C)NCC(O)c1ccccc1Cl.Cl (stereo not drawn), the relative growth was 1.06.
Work on C[C@]12CCC(=O)C=C1CCC1C2CC[C@@]2(C)C1CC[C@@H]2O (stereo partly drawn) yielded a relative growth of 1.07.
For CN1CC[C@@]2(C)c3cc(O)ccc3N(C)[C@@H]12.O=C(O)/C=C/C(=O)O, the relative growth was 1.12.
For Cn1cc(C(=O)Nc2nn[nH]n2)c2ccccc21, the relative growth was 0.957.
Molecule CC(COc1ccc(Oc2ccccc2)cc1)Oc1ccccn1 (stereo not drawn) has a relative growth of 1.22.
Molecule CC1(C)C(=O)C=C[C@@]2(C)C1=C(O)C(=O)[C@]1(C)[C@@H]2CC[C@@]2(C)[C@H](c3ccoc3)C[C@H]3O[C@]321 has a relative growth of 1.27.
For CC(=O)O[C@H]1CC[C@@]2(C)C(=CCC3C2CC[C@]2(C)C(=O)CCC32)C1 (stereo partly drawn), the relative growth was 1.11.
Cc1nc([N+](=O)[O-])c(N2CCNCC2)[nH]1 showed a relative growth of 1.1.
Molecule CCOCC(=O)N[C@H]1CCSC1=O has a relative growth of 1.02.
Work on CCC1(CC)C(=O)NC(=O)NC1=O yielded a relative growth of 0.917.
Work on CO[C@H]1[C@@H](O)[C@@H](C)O[C@H](O[C@H]2CCC3(C)C4CCC5(C)[C@@H](C6=CC(=O)OC6)CC[C@]5(O)[C@@H]4CC[C@]3(O)C2)[C@@H]1O (stereo partly drawn) yielded a relative growth of 1.02.
C[C@@H]1O[C@@H](O[C@H]2CC[C@]3(C=O)C4CC[C@]5(C)[C@@H](C6=CC(=O)OC6)CC[C@]5(O)C4CC[C@]3(O)C2)[C@H](O)[C@H](O)[C@H]1O (stereo partly drawn) showed a relative growth of 1.11.
For CCC(C)C(=O)O[C@@H]1C[C@@]2(C)[C@H](c3ccoc3)OC(=O)CC23OC2(C)O[C@]14[C@]1(C)[C@@H](CC(=O)OC)C5(C)CC1(O)[C@](O)(C5OC(=O)C1(C)OC1C)[C@@H](OC(C)=O)[C@]34O2 (stereo partly drawn), the relative growth was 1.27.
Molecule O=C1CCO1 has a relative growth of 1.11.
Cl.NCC(=O)c1ccccc1 was tested, and the relative growth was 1.04.
CN1CCc2cc3c(cc2C1O)OCO3.Cl (stereo not drawn) showed a relative growth of 1.07.
Work on COCCCNC(=O)[C@@]1(Cc2ccccc2CN=[N+]=[N-])N=C(c2ccc(OCCCO)cc2)O[C@H]1c1ccccc1N=[N+]=[N-] yielded a relative growth of 0.913.
CC(CO)NC(=O)C1C=C2c3cccc4[nH]cc(c34)C[C@H]2N(C)C1.O=C(O)/C=C\C(=O)O (stereo partly drawn) showed a relative growth of 1.04.
CN(C)C(=O)Oc1cc(OC(=O)N(C)C)cc(C(O)CNC(C)(C)C)c1.Cl (stereo not drawn) was tested, and the relative growth was 1.14.
Work on Cl.O=C1CC[C@@]2(O)[C@H]3Cc4ccc(O)c5c4C2(CCN3CC2CC2)[C@H]1O5 yielded a relative growth of 0.963.
N=C(N)N/N=C/c1ccc2c(c1)OCO2 showed a relative growth of 0.97.
Work on CC(C)(C)NCC(O)c1cc(Cl)c(N)c(Cl)c1.Cl (stereo not drawn) yielded a relative growth of 1.22.
Molecule Cc1cc(C(C#N)c2ccc(Cl)cc2)c(Cl)cc1NC(=O)c1cc(I)cc(I)c1O (stereo not drawn) has a relative growth of 1.41.
COc1ccc2c(c1OC)C(=O)O[C@@H]2[C@H]1c2cc3c(cc2CCN1C)OCO3 showed a relative growth of 1.1.
CC(=O)O.Cc1cc2c(C(C)C)c(O)c(O)c(C=O)c2c(O)c1-c1c(C)cc2c(C(C)C)c(O)c(O)c(C=O)c2c1O gave a relative growth of 0.784.
With CC1=C(O)C(=O)C=C2C1=CC=C1[C@@]2(C)CC[C@@]2(C)[C@@H]3C[C@](C)(C(=O)O)CC[C@]3(C)CC[C@]12C the relative growth was 0.869.
Molecule CCC1(C2=NCCN2)Cc2ccccc2O1.Cl (stereo not drawn) has a relative growth of 1.11.
In the case of CC[N+]1(C)CCCC(OC(=O)C(O)(c2ccccc2)c2ccccc2)C1.[Br-] (stereo not drawn), the relative growth is reported as 0.945.
In the case of Cc1ncc(CNC(=O)N(CCCl)N=O)c(N)n1.Cl, the relative growth is reported as 1.
Work on O=C(NC(=O)c1c(F)cccc1F)Nc1ccc(Cl)cc1 yielded a relative growth of 1.26.
Molecule O=C1CCCC2C3CC(CN12)[C@@H]1CCCCN1C3.[O-][Cl+3]([O-])([O-])O (stereo partly drawn) has a relative growth of 0.864.
COc1cc2c(cc1OC)[C@@H]1C(=O)c3ccc4c(c3O[C@@H]1CO2)CC(C(C)C)O4 (stereo partly drawn) showed a relative growth of 0.994.
For COc1ccc(C[C@@H](N)c2ccc(C)cn2)cc1OC, the relative growth was 1.11.
CCCCOC(=O)c1ccccc1C(=O)OCCCC gave a relative growth of 1.18.
In the case of C=CCc1cc(OC)c2c(c1OC)OCO2, the relative growth is reported as 1.05.
For COc1ccc(C(CN(C)C)C2(O)CCCCC2)cc1.Cl (stereo not drawn), the relative growth was 0.917.
O=C1NC(=S)NC(=O)C1=Cc1ccccc1 was tested, and the relative growth was 0.887.
CC(C)(C#N)O[C@@H]1O[C@H](CO)[C@@H](O)[C@H](O)[C@H]1O was tested, and the relative growth was 1.1.
For Nc1ccc2c(c1)CNCC2, the relative growth was 0.958.
O=C(c1ccccc1)C12CN3CN(CN(C3)C1)C2 was tested, and the relative growth was 0.938.
C/C=C1/C[C@@H](C)[C@](O)(CO)C(=O)OCC2=CCN3CC[C@@H](OC1=O)[C@@H]23 gave a relative growth of 0.879.
O=c1[nH]oc2c1CCNC2 showed a relative growth of 1.02.
Work on CC1(C)C(=O)[C@@H]2O[C@@H]2[C@@]2(C)C1C[C@@H](O)[C@]1(C)C2CC[C@@]2(C)[C@H](c3ccoc3)OC(=O)C3OC321 (stereo partly drawn) [1,2alpha-EPOXYDEACETOXYDIHYDROGEDUNIN] yielded a relative growth of 1.17.
With CC1(C)CCC(C)(C)c2cc(-c3csc(CC#N)n3)ccc21 the relative growth was 1.02.
With COc1cccc(C=O)c1OC the relative growth was 0.963.
OCC(O)[C@H]1O[C@@H]2O[C@H](C(Cl)(Cl)Cl)O[C@@H]2[C@H]1O (stereo partly drawn) showed a relative growth of 1.07.
COC[C@]12CN(C=O)C3[C@@H]4[C@H](OC)C1[C@]3(C1CC3(O)C(OC)C(O)C4(OC(C)=O)C1C3OC(=O)c1ccccc1)[C@@H](OC)C[C@H]2O (stereo partly drawn) was tested, and the relative growth was 1.09.
O=[N+]([O-])O[C@H]1CO[C@H]2[C@@H]1OC[C@H]2O[N+](=O)[O-] showed a relative growth of 1.09.
For C=CCc1ccc(OC)cc1, the relative growth was 1.06.
O=c1cccc2n1C[C@@H]1CNC[C@H]2C1 gave a relative growth of 1.16.
COc1cc2ccc(=O)oc2c2ccoc12 showed a relative growth of 1.07.
In the case of NCC1(CC(=O)O)CCCCC1, the relative growth is reported as 0.962.
Cc1cc(C)nc(NC2=NCCN2)n1 was tested, and the relative growth was 0.944.
With O=C(O)[C@H]1C[C@H]2CCCCN2C1 the relative growth was 0.936.
In the case of COC(=O)[C@]1(Cc2ccccc2N=[N+]=[N-])N=C(c2ccc(OCCCO)cc2)O[C@@H]1c1ccccc1CN=[N+]=[N-], the relative growth is reported as 0.919.
Molecule NC1C[C@H]1c1ccccc1.O=S(=O)(O)O (stereo partly drawn) has a relative growth of 0.968.
CC(O)(CS(=O)(=O)c1ccc(F)cc1)C(=O)Nc1ccc(C#N)c(C(F)(F)F)c1 (stereo not drawn) was tested, and the relative growth was 0.918.
C[N+]12CCC(CC1)C(OC(=O)C(O)(c1ccccc1)c1ccccc1)C2.[Br-] (stereo not drawn) showed a relative growth of 0.956.
In the case of CN1CCN(Cc2ccc[nH]2)CC1, the relative growth is reported as 0.981.
Work on C=CCOC(=O)[C@@H]1[C@H](C(=O)OC)N(C)[C@@H](c2ccccc2)[C@]12C(=O)Nc1ccc(I)cc12 yielded a relative growth of 1.13.
COCCCNC(=O)[C@]1(Cc2ccccc2N=[N+]=[N-])N=C(c2ccc(OCCCO)cc2)O[C@@H]1c1ccccc1N=[N+]=[N-] gave a relative growth of 1.01.
CCOC(=O)c1cncn1[C@H](C)c1ccccc1 was tested, and the relative growth was 1.23.
For CNC(=O)Oc1cccc2ccccc12, the relative growth was 0.949.
With O=[N+]([O-])c1c(NCCO)ccc2nonc12 the relative growth was 0.977.
O=C(O)C(Cl)Cl.[NaH] was tested, and the relative growth was 1.07.
Molecule CN1CCc2cc3c(cc2[C@@H]1O)OCO3 has a relative growth of 1.14.
Molecule COc1cc(C=O)cc(OC)c1OC has a relative growth of 0.993.
With NCCc1cccc2ccccc12 the relative growth was 0.988.
Molecule Cc1[nH]c2ccccc2c1CN(C)C has a relative growth of 1.05.
COC(=O)[C@@]1(Cc2ccccc2N=[N+]=[N-])N=C(c2ccc(OCCCO)cc2)O[C@H]1c1ccccc1CN=[N+]=[N-] gave a relative growth of 1.04.
Work on NCCc1nnc2n1CCCCC2 yielded a relative growth of 0.988.
In the case of O=C(Cc1ccccc1)c1ccccc1, the relative growth is reported as 0.858.
Work on CC(C)c1cccc(C(C)C)c1O yielded a relative growth of 1.13.
With Cc1nccc2c1[nH]c1cc(O)ccc12 the relative growth was 0.83.
With O=C(O)CC[N+](=O)[O-] the relative growth was 0.813.
Molecule CN1C(=O)[C@@]23C[C@]4([C@@]56C[C@]78SS[C@](CO)(C(=O)N7[C@@H]5Nc5ccccc56)N(C)C8=O)c5ccccc5N[C@H]4N2C(=O)[C@@]1(CO)SS3 has a relative growth of 0.335.
CCNC(=O)[C@H]1O[C@H](n2cnc3c(N)ncnc32)[C@@H](O)[C@@H]1O showed a relative growth of 0.973.
In the case of C/C=C/c1ccc2c(c1)OCO2, the relative growth is reported as 1.1.
